Read-outs that look alike come from different tables or passages of the source.
Assays:
Format in all cases: biochemical
[1] = target: 266 human kinases (Homo sapiens, UniProt Q5VT25); conditions: MRCKα(h); 100 μM
Description: (§1) Specifically, in these assays, a positively charged substrate is phosphorylated with a radiolabeled phosphate group from an ATP if the kinase is not inhibited by an inhibitor peptide. The positively charged substrate then is attracted to a negatively charged filter membrane, quantified with a scintillation counter, and compared to a 100% activity control.

Protein sequences, listed by entry. Tags and fused reporters are not part of them. Lines headed by an entry give the natural chain unless they say otherwise; changes in a name come on top. Residues count along the entry.
UniProt Q5VT25: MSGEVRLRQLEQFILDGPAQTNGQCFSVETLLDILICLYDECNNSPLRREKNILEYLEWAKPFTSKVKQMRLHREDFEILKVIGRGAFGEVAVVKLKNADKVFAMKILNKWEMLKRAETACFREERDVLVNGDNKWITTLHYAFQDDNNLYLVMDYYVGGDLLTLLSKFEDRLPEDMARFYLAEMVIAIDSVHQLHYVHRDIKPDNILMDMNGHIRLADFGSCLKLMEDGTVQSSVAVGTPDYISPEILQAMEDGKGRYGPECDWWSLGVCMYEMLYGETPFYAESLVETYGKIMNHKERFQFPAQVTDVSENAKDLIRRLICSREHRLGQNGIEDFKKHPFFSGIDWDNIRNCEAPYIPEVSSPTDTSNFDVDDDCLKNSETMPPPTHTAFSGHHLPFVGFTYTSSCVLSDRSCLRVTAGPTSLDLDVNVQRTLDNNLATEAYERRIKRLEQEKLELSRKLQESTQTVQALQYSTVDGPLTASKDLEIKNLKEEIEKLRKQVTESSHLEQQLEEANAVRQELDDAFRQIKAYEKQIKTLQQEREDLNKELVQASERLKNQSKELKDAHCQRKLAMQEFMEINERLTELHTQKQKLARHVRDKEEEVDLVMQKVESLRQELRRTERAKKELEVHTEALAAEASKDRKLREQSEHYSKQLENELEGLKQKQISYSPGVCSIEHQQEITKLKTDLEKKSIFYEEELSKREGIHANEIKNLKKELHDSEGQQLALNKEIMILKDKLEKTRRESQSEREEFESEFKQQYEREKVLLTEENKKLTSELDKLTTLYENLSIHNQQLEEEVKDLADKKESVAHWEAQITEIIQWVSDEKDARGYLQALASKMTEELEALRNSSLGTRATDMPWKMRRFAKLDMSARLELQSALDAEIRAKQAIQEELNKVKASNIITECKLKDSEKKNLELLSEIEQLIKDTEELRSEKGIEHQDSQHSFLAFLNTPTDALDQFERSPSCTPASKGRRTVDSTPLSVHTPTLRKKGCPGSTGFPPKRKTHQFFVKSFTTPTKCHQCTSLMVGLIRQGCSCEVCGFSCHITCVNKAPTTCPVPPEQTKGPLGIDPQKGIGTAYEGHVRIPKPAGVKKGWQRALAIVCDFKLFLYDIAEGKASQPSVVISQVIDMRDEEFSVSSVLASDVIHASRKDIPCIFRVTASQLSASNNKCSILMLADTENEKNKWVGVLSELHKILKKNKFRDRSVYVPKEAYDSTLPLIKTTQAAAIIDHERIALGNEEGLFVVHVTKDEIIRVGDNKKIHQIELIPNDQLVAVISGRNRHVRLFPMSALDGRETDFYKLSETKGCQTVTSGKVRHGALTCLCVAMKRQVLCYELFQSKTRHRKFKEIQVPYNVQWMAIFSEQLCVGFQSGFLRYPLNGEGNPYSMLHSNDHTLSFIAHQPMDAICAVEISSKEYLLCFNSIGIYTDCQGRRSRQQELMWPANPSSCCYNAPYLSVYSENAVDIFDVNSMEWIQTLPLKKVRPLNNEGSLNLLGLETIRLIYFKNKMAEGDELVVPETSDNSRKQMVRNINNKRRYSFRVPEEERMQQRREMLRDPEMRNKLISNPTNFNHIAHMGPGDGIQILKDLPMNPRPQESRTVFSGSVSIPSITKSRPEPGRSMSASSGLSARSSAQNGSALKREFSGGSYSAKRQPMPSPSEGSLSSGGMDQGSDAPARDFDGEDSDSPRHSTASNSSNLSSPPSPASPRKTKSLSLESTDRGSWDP
UniProt Q9Y5S2: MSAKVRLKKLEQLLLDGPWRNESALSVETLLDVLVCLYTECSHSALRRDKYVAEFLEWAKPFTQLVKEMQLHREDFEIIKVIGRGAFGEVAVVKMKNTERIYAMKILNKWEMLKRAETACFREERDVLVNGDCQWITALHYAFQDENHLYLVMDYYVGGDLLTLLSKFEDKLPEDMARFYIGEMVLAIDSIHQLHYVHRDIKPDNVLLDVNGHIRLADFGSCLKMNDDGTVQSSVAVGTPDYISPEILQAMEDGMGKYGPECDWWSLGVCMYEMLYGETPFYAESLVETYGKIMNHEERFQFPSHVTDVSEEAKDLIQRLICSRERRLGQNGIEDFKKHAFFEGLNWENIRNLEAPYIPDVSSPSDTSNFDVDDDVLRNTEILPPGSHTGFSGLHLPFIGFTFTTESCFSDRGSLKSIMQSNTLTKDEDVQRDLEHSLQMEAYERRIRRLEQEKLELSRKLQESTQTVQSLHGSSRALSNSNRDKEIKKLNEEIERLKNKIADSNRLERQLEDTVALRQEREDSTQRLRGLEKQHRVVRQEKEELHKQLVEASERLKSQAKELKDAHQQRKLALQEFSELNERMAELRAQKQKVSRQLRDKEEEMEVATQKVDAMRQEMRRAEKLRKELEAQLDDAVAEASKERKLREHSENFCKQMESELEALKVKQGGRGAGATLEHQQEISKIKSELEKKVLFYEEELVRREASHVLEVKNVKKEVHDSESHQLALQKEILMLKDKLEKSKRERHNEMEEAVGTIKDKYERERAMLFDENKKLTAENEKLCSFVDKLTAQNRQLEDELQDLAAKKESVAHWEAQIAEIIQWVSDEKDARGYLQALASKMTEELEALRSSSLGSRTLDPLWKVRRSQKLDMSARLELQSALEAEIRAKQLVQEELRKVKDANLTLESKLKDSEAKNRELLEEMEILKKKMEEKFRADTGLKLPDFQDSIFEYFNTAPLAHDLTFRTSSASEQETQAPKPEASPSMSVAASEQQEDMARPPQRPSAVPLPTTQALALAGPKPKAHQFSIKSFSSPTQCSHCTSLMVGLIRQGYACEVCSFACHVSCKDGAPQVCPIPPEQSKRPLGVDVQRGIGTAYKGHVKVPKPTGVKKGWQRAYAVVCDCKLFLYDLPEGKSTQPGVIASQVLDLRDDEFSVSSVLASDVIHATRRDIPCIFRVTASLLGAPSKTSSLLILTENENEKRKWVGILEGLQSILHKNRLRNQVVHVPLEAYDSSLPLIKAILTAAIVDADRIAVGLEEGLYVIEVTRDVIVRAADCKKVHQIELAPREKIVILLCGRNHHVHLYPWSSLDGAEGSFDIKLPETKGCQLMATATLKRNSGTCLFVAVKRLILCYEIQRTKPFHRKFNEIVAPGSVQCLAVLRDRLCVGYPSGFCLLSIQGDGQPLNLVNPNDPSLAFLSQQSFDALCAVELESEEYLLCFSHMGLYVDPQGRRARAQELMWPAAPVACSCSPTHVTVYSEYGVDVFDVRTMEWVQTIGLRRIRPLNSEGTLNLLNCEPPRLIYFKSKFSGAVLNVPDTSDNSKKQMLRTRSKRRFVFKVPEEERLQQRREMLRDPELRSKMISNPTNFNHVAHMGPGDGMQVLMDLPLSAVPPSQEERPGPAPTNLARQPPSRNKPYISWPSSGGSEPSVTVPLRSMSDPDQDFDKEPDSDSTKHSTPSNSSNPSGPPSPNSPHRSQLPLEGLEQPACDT
UniProt P53355: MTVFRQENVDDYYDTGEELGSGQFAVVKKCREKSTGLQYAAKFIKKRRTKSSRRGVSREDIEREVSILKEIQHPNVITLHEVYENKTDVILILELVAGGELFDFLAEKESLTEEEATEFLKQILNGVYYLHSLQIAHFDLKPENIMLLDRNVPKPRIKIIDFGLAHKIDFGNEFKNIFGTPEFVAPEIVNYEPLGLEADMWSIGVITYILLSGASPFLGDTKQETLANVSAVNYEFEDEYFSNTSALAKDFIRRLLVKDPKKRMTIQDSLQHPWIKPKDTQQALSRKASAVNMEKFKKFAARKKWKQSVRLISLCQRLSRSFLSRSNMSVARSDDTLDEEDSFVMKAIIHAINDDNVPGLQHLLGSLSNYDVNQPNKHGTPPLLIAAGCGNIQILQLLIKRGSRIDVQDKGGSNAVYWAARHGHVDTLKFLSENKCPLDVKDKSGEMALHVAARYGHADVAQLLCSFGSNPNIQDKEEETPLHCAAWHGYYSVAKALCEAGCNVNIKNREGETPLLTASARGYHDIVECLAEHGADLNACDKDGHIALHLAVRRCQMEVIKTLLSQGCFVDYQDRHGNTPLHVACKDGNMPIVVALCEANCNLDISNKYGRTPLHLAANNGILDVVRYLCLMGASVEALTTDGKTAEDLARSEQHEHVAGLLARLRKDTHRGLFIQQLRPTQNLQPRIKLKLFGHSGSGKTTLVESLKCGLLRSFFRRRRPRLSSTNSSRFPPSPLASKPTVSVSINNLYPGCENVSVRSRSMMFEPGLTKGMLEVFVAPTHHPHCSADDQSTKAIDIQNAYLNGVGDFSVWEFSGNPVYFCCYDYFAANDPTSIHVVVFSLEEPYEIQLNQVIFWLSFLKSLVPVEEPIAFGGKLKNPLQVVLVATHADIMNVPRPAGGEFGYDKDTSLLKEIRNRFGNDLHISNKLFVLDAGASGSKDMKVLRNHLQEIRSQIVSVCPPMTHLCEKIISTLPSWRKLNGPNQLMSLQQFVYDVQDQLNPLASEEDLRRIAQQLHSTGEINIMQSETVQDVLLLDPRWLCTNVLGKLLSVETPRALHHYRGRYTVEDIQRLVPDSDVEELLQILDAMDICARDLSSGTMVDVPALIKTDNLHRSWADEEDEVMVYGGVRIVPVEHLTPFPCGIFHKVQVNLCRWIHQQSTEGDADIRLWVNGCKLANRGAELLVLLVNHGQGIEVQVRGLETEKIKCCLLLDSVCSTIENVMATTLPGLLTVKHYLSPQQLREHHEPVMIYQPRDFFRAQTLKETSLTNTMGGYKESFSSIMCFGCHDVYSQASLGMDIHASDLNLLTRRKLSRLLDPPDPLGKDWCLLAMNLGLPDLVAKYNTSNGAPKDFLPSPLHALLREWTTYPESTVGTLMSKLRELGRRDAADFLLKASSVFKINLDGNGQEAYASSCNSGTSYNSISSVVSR
UniProt P16234, 24-1089 D842V: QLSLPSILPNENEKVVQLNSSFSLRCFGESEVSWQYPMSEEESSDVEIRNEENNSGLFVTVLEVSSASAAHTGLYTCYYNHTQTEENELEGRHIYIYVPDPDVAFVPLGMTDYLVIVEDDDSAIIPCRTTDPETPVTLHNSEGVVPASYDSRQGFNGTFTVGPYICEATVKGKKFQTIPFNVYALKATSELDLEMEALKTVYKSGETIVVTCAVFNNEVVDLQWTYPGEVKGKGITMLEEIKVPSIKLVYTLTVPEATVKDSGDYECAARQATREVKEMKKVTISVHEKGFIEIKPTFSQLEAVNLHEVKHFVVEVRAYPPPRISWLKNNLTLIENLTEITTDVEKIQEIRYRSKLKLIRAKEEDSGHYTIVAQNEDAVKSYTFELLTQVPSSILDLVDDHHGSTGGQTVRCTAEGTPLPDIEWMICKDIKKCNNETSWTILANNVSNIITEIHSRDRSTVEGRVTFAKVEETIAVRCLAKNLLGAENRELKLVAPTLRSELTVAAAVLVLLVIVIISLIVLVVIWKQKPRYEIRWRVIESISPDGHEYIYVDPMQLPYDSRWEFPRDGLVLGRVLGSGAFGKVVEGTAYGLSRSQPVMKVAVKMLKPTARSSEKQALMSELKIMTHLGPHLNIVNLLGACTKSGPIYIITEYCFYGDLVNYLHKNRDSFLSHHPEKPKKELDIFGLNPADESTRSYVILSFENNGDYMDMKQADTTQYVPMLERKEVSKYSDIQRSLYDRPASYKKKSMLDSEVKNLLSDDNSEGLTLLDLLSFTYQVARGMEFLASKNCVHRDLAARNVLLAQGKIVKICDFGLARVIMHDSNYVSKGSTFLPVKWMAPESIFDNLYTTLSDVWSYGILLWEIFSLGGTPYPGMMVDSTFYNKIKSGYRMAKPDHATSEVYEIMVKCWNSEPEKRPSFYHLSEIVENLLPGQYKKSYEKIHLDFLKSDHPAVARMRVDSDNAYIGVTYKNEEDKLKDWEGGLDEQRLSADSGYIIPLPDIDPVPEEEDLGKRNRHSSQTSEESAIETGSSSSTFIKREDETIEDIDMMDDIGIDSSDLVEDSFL
UniProt P53667: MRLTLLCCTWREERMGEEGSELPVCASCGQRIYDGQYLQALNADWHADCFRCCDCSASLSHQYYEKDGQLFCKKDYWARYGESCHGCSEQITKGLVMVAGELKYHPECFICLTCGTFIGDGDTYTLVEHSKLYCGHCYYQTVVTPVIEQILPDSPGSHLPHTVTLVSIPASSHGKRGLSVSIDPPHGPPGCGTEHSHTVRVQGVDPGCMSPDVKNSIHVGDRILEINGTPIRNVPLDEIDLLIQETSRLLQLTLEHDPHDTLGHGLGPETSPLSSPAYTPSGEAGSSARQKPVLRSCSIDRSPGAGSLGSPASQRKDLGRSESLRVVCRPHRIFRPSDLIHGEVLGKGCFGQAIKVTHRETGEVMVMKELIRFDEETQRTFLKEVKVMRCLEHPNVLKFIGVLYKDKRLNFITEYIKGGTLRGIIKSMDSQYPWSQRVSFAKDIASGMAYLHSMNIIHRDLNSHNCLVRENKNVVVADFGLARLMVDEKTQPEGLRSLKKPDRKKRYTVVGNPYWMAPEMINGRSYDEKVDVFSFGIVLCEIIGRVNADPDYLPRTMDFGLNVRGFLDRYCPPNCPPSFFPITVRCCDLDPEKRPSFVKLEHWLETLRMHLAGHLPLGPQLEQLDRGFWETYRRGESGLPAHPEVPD

[2] = target: 266 human kinases (Homo sapiens, UniProt Q9Y5S2); conditions: MRCKβ(h); 100 μM
Description: as §1

[3] = target: T1, 266 human kinases (Homo sapiens, UniProt O15111); conditions: IKKα(h); 100 μM
T1 sequence (O15111 1-745): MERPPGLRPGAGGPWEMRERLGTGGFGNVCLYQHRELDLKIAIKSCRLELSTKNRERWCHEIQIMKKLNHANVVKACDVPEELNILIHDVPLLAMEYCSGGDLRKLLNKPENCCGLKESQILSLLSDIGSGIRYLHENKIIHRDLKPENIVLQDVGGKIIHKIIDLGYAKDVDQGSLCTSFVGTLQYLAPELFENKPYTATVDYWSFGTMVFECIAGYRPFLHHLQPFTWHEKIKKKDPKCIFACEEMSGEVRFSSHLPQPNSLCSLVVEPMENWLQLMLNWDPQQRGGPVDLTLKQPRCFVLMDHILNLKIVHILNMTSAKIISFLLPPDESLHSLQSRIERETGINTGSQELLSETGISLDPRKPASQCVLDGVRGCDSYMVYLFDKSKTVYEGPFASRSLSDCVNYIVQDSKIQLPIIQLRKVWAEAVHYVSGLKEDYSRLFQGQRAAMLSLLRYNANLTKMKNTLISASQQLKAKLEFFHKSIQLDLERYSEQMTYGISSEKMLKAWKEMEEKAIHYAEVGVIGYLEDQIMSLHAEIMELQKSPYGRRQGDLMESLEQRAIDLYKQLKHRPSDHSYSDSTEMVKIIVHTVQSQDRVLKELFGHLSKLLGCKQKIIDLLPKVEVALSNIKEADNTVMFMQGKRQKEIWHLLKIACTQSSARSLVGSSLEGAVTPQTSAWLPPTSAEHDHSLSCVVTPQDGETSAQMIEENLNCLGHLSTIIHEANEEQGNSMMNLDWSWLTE
Description: as §1

[4] = target: 266 human kinases (Homo sapiens, UniProt P24941); conditions: 100 μM
Description: as §1

[5] = target: 266 human kinases (Homo sapiens, UniProt P53355); conditions: DAPK1(h); 100 μM
Description: as §1

[6] = target: 266 human kinases (Homo sapiens, UniProt P00519, H396P); conditions: Abl(H8396P)(h); 100 μM
Description: as §1

[7] = target: 266 human kinases (Homo sapiens, UniProt Q16539); conditions: SAPK2a(h); 100 μM
Description: as §1

[8] = target: 266 human kinases (Homo sapiens, UniProt P28482); conditions: MAPK2(h); 100 μM
Description: as §1

[9] = target: 266 human kinases (Homo sapiens, UniProt Q15418); conditions: Rsk1(h); 100 μM
Description: as §1

[10] = target: T2, 266 human kinases (Homo sapiens, UniProt O14733); conditions: MKK7β(h); 100 μM
T2 sequence (O14733 1-419): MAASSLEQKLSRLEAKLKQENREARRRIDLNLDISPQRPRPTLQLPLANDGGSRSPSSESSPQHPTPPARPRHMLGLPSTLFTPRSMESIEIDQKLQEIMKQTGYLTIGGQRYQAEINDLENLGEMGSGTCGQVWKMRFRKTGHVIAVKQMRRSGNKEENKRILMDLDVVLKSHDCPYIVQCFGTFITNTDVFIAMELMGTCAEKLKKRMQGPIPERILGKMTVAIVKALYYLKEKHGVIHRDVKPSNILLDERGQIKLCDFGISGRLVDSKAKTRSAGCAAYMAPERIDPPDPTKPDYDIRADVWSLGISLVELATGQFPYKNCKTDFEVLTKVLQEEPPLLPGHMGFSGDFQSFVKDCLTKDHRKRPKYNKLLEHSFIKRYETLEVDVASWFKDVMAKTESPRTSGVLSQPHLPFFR
Description: as §1

[11] = target: T3, 266 human kinases (Homo sapiens, UniProt P51817); conditions: PrKX(h); 100 μM
T3 sequence (P51817 1-358): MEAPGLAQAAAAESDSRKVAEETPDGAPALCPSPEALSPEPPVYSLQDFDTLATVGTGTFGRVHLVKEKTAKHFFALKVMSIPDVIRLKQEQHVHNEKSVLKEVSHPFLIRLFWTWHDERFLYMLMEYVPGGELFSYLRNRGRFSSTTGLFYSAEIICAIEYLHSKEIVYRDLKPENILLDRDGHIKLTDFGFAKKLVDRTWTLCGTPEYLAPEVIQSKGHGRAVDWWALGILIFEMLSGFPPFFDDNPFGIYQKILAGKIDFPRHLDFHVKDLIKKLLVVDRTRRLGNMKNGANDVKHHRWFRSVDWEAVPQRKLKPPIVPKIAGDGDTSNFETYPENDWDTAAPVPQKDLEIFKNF
Description: as §1

[12] = target: 266 human kinases (Homo sapiens, UniProt Q86Z02); conditions: HIPK1(h); 100 μM
Description: as §1

[13] = target: 266 human kinases (Homo sapiens, UniProt P16234, D842V); conditions: PDGFRα(D842V)(h); 100 μM
Description: as §1

[14] = target: 266 human kinases (Homo sapiens, UniProt P53667); conditions: LIMK1(h); 100 μM
Description: as §1

Question: What does the source list for “YARAAARQARAKALNRQLGVA (mammal) [MMI-0200]”?
Answer: % activity [1]: 103%; % activity [2]: 102%; % activity [3]: 104%; % activity ([4]; CDK2/cyclinA(h)): 114%; % activity ([4]; CDK2/cyclinE(h)): 112%; % activity [5]: 113%; % activity [6]: 121%; % activity [7]: 107%; % activity [8]: 105%; % activity [9]: 102%; % activity [10]: 117%; % activity [11]: 112%; % activity [12]: 115%; % activity [13]: 107%; % activity [14]: 109%
